Measurements as given in patent publication US10562947B2, “Compositions and methods for preventing or treating diseases, conditions or processes characterized by aberrant fibroblast proliferation and extracellular matrix deposition” (MOERAE MATRIX, INC., priority 2011, dated 2020).

Assays:
Test in all cases: Kinase Profiling Assay
Assay type in all cases: biochemical
Details in all cases: 100 μM peptide
BTK(h) = BTK(h) (Homo sapiens, UniProt Q06187)
Procedure: (§1) Every kinase activity measurement was conducted in duplicate.
(§2) In addition to determining the IC50 of the compound, the specificity of MK2 inhibitory peptides was assessed by examining activities of all 266 human kinases available for testing in the Millipore kinase profiling service (Table 1).

Snk(h) = Snk(h) (Homo sapiens, UniProt Q9NYY3)
Procedure: as §1, §2

PKCη(h) = PKCη(h) (Homo sapiens, UniProt P24723)
Procedure: as §1, §2

JAK3(h) = target: T1, JAK3(h) (Homo sapiens, UniProt P52333)
T1 construct: purchased Millipore
T1 sequence (P52333 1-1124): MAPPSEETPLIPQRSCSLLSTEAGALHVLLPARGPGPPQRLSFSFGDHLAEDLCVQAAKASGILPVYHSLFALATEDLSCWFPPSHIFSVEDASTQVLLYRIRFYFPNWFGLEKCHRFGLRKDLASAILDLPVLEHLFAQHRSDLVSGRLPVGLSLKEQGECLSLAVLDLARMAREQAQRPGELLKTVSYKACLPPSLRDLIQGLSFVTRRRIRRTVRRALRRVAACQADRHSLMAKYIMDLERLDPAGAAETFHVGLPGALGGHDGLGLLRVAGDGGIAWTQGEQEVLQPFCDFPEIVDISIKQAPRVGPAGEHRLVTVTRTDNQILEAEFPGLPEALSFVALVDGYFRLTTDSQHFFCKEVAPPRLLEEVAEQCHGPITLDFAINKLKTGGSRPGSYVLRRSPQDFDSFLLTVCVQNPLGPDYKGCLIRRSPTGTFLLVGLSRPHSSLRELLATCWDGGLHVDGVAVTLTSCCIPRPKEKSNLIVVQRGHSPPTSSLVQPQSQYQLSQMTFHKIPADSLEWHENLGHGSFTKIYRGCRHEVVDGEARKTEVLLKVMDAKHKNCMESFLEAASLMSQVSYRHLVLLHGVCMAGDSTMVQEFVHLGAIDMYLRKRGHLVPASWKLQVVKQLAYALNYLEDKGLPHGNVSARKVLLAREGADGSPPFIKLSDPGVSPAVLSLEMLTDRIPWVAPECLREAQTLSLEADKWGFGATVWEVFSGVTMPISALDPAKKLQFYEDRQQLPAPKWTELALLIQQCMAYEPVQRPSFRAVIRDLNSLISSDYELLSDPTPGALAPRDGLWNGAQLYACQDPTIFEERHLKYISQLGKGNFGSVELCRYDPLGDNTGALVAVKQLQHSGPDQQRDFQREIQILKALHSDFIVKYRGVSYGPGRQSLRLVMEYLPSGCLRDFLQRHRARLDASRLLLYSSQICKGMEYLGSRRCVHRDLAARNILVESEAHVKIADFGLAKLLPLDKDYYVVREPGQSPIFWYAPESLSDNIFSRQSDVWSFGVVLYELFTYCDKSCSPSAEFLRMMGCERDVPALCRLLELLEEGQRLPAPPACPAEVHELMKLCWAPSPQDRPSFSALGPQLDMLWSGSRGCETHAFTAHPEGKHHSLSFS
Procedure: as §1, §2

FAK(h) = FAK(h) (Homo sapiens, UniProt Q05397)
Procedure: as §1, §2

Plk1(h) = target: T2, Plk1(h) (Homo sapiens, UniProt P53350)
T2 construct: purchased Millipore (IC50 Profiler Express service)
Procedure: as §1, §2

CLK2(h) = CLK2(h) (Homo sapiens, UniProt P49760)
Procedure: as §1, §2

PAR-1Bα(h) = target: T3, PAR-1Bα(h) (Homo sapiens, UniProt Q7KZI7)
T3 sequence (Q7KZI7 1-725 isoform Q7KZI7-4): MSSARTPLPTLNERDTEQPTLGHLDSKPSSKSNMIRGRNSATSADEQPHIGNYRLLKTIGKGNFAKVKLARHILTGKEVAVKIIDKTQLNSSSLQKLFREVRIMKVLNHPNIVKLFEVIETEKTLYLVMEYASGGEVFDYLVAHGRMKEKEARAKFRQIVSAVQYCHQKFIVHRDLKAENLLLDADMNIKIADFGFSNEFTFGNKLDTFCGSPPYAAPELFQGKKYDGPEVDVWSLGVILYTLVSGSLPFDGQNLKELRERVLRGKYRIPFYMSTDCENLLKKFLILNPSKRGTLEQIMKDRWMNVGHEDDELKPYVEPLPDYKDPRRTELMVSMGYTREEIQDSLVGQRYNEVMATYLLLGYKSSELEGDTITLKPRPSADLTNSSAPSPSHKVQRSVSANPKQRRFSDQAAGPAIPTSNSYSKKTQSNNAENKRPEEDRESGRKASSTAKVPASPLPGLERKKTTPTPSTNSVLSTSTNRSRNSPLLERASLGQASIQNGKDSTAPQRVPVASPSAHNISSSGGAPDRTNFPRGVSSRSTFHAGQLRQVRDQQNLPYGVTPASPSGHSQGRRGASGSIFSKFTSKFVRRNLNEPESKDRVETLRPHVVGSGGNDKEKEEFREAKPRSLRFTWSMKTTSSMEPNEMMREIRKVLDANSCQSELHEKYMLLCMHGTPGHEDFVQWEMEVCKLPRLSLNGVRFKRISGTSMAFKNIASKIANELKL
Procedure: as §1, §2

PDGFRα(D842V)(h) = PDGFRα(D842V)(h) (Homo sapiens, UniProt P16234, D842V)
Procedure: as §1, §2

ACK1(h) = ACK1(h) (Homo sapiens, UniProt Q07912)
Procedure: as §1, §2

TLK2(h) = TLK2(h) (Homo sapiens, UniProt Q86UE8)
Procedure: as §1, §2

MAPK1(h) = MAPK1(h) (Homo sapiens, UniProt P27361)
Procedure: as §1, §2

FGFR3(h) = FGFR3(h) (Homo sapiens, UniProt P22607)
Procedure: as §1, §2

FGFR2(N549H)(h) = FGFR2(N549H)(h) (Homo sapiens, UniProt P21802, N549H)
Procedure: as §1, §2

CK1γ1(h) = CK1γ1(h) (Homo sapiens, UniProt Q9HCP0)
Procedure: as §1, §2

Tie2(R849W)(h) = Tie2(R849W)(h) (Homo sapiens, UniProt Q02763, R849W)
Procedure: as §1, §2

GRK5(h) = target: T4, GRK5(h) (Homo sapiens, UniProt P34947)
T4 construct: purchased Millipore
Procedure: as §1, §2

MRCKα(h) = MRCKα(h) (Homo sapiens, UniProt Q5VT25)
Procedure: as §1, §2

c-RAF(h) = c-RAF(h) (Homo sapiens, UniProt P04049)
Procedure: as §1, §2

PKA(h) = PKA(h) (Homo sapiens, UniProt P17612)
Procedure: as §1, §2

PAK6(h) = PAK6(h) (Homo sapiens, UniProt Q9NQU5)
Procedure: as §1, §2

IGF-1R(h) = target: T5, IGF-1R(h) (Homo sapiens, UniProt P08069)
T5 construct: purchased Millipore
Procedure: as §1, §2

Met(Y1248D)(h) = Met(Y1248D)(h) (Homo sapiens, UniProt P08581, Y1230D)
Procedure: as §1, §2

cKit(V560G)(h) = cKit(V560G)(h) (Homo sapiens, UniProt P10721, V560G)
Procedure: as §1, §2

CK2α2(h) = CK2α2(h) (Homo sapiens, UniProt P19784)
Procedure: as §1, §2

Met(Y1248H)(h) = Met(Y1248H)(h) (Homo sapiens, UniProt P08581, Y1230H)
Procedure: as §1, §2

FAKLAARLYRKALARQLGVAA [MMI-0300]
BTK(h) % activity (BTK(h)): 102% | Snk(h) % activity (Snk(h)): 114% | PKCη(h) % activity (PKCη(h)): 103% | JAK3(h) % activity (JAK3(h)): 121% | FAK(h) % activity (FAK(h)): 111% | Plk1(h) % activity (Plk1(h)): 115% | CLK2(h) % activity (CLK2(h)): 103% | PAR-1Bα(h) % activity (PAR-1Bα(h)): 113% | PDGFRα(D842V)(h) % activity (PDGFRα(D842V)(h)): 114% | ACK1(h) % activity (ACK1(h)): 104% | TLK2(h) % activity (TLK2(h)): 114% | MAPK1(h) % activity (MAPK1(h)): 107% | FGFR3(h) % activity (FGFR3(h)): 102% | FGFR2(N549H)(h) % activity (FGFR2(N549H)(h)): 116% | CK1γ1(h) % activity (CK1γ1(h)): 111% | Tie2(R849W)(h) % activity (Tie2(R849W)(h)): 117% | GRK5(h) % activity (GRK5(h)): 136% | MRCKα(h) % activity (MRCKα(h)): 104% | c-RAF(h) % activity (c-RAF(h)): 107% | PKA(h) % activity (PKA(h)): 119% | PAK6(h) % activity (PAK6(h)): 104% | IGF-1R(h) % activity (IGF-1R(h)): 119% | Met(Y1248D)(h) % activity (Met(Y1248D)(h)): 102% | cKit(V560G)(h) % activity (cKit(V560G)(h)): 102% | CK2α2(h) % activity (CK2α2(h)): 105% | Met(Y1248H)(h) % activity (Met(Y1248H)(h)): 117%
